{"sequences": {"note": "Chains of the proteins cited; added tags and fusions are not shown. Lines headed by an entry give the natural chain unless they say otherwise; changes in a name come on top.", "UniProt P07639": "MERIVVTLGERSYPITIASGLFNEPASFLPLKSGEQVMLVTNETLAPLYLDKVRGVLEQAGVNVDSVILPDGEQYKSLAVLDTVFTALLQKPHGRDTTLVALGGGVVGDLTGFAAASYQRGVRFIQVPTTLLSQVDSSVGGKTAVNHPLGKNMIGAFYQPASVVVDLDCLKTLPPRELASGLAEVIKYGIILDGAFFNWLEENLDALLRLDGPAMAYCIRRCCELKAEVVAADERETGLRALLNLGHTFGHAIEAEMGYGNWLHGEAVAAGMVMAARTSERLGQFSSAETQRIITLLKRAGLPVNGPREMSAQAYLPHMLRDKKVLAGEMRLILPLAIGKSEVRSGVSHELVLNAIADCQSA"}, "source": "BindingDB's records for 10.1016/S0960-894X(00)80510-7", "key": {"[1]": {"target": "T1, 3-dehydroquinate synthase (Escherichia coli (strain K12), UniProt P07639)", "assay": "Association rate constant against 3-dehydroquinate synthase"}, "[2]": {"target": "T1, 3-dehydroquinate synthase", "assay": "Rate constant against 3-dehydroquinate synthase"}}}
{"smiles": "O=C(O)[C@@]1(O)CC[C@H](O)[C@@H](CP(=O)(O)O)C1", "values": [{"measurement": "koff", "setting": "[1]", "value": 0.00032, "unit": "s⁻¹"}, {"measurement": "kon (M-1-s-1)", "setting": "[2]", "value": 1500, "unit": "M⁻¹ s⁻¹"}]}
